Where two headings read alike, the source gives them in different places.
Tests used:
[1] = in vivo
[2] = in vivo; remark: listed apart in the source

C=CCOc1ccc(CC(=O)O)cc1Cl [Compound V, 4-allyloxy-3-chlorophenylacetic acid, reference compound]
LD50 [1]: 1090 mg/kg
LD50 [2]: 1030 mg/kg

Source: patent US4529737A, “Analgesic and anti-inflammatory arylalkanoic acid phthalidyl esters and pharmaceutical compositions thereof” (priority 1979, dated 1985)
